Key:
[1] = molecular target: collectin-11 (recombinant) (UniProt Q9BWP8)
[2] = molecular target: collectin-11 (recombinant) (UniProt Q9BWP8); experiment: ELISA; plates coated with 4 μg/ml recombinant CL-11 or ficolin-1, -2, -3 in 0.1 mol/L carbonate buffer pH 9.6; THP 0.3125 to 10 μg/mL in VBS with 0.5 mmol/L MgCl2, 0.15 mmol/L CaCl2, 37°C, 1 hour; detected with anti-uromodulin polyclonal antibody; OD405

binding ability, percent of native THP [2] [%]	Substance	inhibition of haemolysis of chicken erythrocytes by the lectin pathway (MBL deficient serum, anti-C1q antibody, 0.15 mmol/L CaCl2), THP 0 to 10 μmol/L [1] [%]
	Tamm-Horsfall protein (native, purified from urine) (from UniProt P07911 25-587) (natural protein)	90
60	Tamm-Horsfall protein treated with PNGaseF in non-reduced, non-denaturing condition (part of the N-glycan removed) (from UniProt P07911 25-614) (natural protein)	
30	Tamm-Horsfall protein treated with endoglycosidase H (high-mannose glycans removed) (from UniProt P07911 25-614) (natural protein)	

— publication PMC7131921
